Patent US7049331B2, “1,2,4-thiadiazole derivatives as melanocortin receptor modulators” (Ortho-McNeil Pharmaceutical, Inc., priority 2001, dated 2006)

System: human sebocytes
Experiment: Evaluation of Sebaceous Lipid Synthesis by Sebaceous Cells (14C acetate, HPTLC)
Type: cell-based
Details: Cholera toxin & Bovine pituitary extract; for % Inh Triglyceride synthesis: Cell Sex F/M

## COc1ccccc1-c1nc(Nc2ccccc2)s[n+]1-c1ccccc1OC.[Br-] [Compound 74, 2-(2-methoxyphenyl)-3-(2-methoxyphenyl)-5-phenylamino-[1,2.4]thiadiazol-2-ium]
0.4 μM
  % Inh Triglyceride synthesis: 0%
0.4 μM, Cell Sex F
  % Inh Cholesterol ester synthesis: 85%
  % Inh Wax ester synthesis: 70%
0.4 μM, Cell Sex M
  % Inh Cholesterol ester synthesis: 64%
  % Inh Wax ester synthesis: 50%
0.6 μM
  % Inh Triglyceride synthesis: 0%
0.6 μM, Cell Sex F
  % Inh Cholesterol ester synthesis: 88%
  % Inh Unknown lipid synthesis: 85/80%
  % Inh Wax ester synthesis: 67%
0.6 μM, Cell Sex M
  % Inh Cholesterol ester synthesis: 76%
  % Inh Wax ester synthesis: 42%
